# Source: PubChem BioAssay AID707 (Columbia University Molecular Screening Center, 2007)
# Amino acid sequences for entries named in this document (tags omitted).
# UniProt P34913, whole entry: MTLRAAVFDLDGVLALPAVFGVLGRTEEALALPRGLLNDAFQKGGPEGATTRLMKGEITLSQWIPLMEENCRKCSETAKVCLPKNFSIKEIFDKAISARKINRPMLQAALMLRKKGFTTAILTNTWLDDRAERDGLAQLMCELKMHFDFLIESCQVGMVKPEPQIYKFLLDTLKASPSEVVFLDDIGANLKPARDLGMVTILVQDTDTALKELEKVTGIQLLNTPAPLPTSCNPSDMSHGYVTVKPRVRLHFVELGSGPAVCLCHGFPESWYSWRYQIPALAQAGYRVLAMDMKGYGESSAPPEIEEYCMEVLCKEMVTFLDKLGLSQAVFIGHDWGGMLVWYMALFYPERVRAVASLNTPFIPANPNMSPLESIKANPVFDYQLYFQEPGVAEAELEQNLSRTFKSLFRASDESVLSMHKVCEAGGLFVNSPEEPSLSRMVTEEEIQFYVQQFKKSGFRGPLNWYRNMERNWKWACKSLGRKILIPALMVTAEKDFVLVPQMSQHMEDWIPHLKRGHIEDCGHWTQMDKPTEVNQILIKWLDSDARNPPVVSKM
# The list shows a part of the results, in another mix than the full data. Some results for these compounds are left out of this collection, so the calls shown say nothing about other tests. The source made the active and inactive calls. No stated cut-off is given here; in the data, active means inhibition above about 80%; inactive means the rest.
# Target: Bifunctional epoxide hydrolase 2 (Homo sapiens) (UniProt P34913)
# Assay: sEH enzyme activity blockers – biochemical, human sEH, primary screen (AID 707)
# Details: recombinant human sEH enzymatic activity assay; at 2 µM; hits give high values
row,SMILES,inhibition
1,CN(C)c1cccc(C(=O)NCC2(N(C)C)CCCCC2)c1,inactive: -6.3%
2,O=C(OC1CN2CCC1CC2)C(CO)(c1ccccc1)c1ccccc1 (stereo not drawn),inactive: 1.2%
3,CC(C)N1C(=O)CC2(CCN(CCOC(=O)C(O)(c3ccccc3)c3ccccc3)CC2)C1=O,inactive: -8.4%
